Columns and labels:
[1] = target: T1, RINm5f cells expressing endogenous GLP-1, calcitonin, and GIP receptors (Rattus norvegicus, UniProt P32301); test: GLP/GIP/CT cAMP (RIN) assay; assay type: cell-based
T1 construct: RINm5f cells expressing endogenous GLP-1, calcitonin, and GIP receptors; endogenous in cells; host or cells: RINm5f cells
T1 sequence (P32301 22-463): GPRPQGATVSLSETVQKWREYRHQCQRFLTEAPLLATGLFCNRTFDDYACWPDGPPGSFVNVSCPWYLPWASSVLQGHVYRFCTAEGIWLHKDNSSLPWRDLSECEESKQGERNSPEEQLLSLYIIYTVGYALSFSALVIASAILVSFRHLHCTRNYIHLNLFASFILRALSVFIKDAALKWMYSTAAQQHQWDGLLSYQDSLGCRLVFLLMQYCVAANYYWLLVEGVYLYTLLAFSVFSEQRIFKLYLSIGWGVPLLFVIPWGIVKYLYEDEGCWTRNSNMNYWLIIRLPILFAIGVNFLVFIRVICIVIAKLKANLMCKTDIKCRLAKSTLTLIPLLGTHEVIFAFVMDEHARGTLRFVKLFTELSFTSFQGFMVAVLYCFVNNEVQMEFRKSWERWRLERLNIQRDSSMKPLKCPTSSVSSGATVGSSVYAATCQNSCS
Procedure: In addition, receptor binding can be measured using cells prepared from confluent cultures of RINm5f cells expressing endogenous GLP-1, calcitonin, and GIP receptors. Cells, and peptide or buffer solution are combined in 384-well plates. After a 30-minute incubation at room temperature in air, cAMP content is measured as recommended in the Perkin-Elmer AlphaScreen kit instructions.
(§1) Cells, and peptide or buffer solutions are combined in 384-well plates and incubated at room temperature in air for 30-minutes. cAMP content can then be measured according to recommendations in the Perkin-Elmer AlphaScreen™ kit instructions using the Perkin Elmer Fusion fluorimeter and data are analyzed using XLfit software (IDBS).

[2] = target: T2, rat thyroid carcinoma 6-23 clone 6 cells expressing endogenous GLP-1 receptors (Rattus norvegicus, UniProt P32301); test: GLP-1 cAMP (6-23) cyclase assay; assay type: cell-based
T2 construct: rat thyroid carcinoma 6-23 clone 6 cells or RINm5F insulinoma cells expressing endogenous GLP-1 receptors; endogenous in cells; host or cells: rat thyroid carcinoma 6-23 clone 6 cells
T2 sequence (P32301 22-463): T1 sequence (P32301 22-463)
Procedure: as §1

| GLP/GIP/CT cAMP(RIN) EC50 [1] [nM] | EC50 [2] [nM] | Compound |
| --- | --- | --- |
| 0.22 | – | CC[C@H](C)[C@H](NC(=O)[C@H](CC(C)C)NC(=O)[C@H](Cc1c[nH]c2ccccc12)NC(=O)[C@H](CCC(=O)O)NC(=O)[C@@H](NC(=O)[C@H](Cc1ccccc1)NC(=O)[C@H](CCC(=O)O)NC(=O)[C@H](CCCCN)NC(=O)[C@H](C)NC(=O)[C@H](C)NC(=O)[C@H](CCCCN)NC(=O)[C@H](CCC(=O)O)NC(=O)[C@H](CCC(=O)O)NC(=O)[C@H](CC(C)C)NC(=O)[C@H](Cc1ccc(O)cc1)NC(=O)[C@H](CCC(=O)O)NC(=O)[C@@H](NC(=O)[C@@H](NC(=O)[C@H](CC(=O)O)NC(=O)[C@H](CC(N)=O)NC(=O)[C@@H](NC(=O)[C@H](Cc1ccc(O)cc1)NC(=O)[C@@H](NC(=O)CNC(=O)[C@H](CCC(=O)O)NC(=O)[C@@H](C)NC(=O)[C@@H](N)Cc1c[nH]cn1)[C@@H](C)O)[C@@H](C)O)C(C)C)[C@@H](C)O)[C@@H](C)CC)C(=O)N[C@@H](CCCCN)C(=O)NCC(=O)N[C@@H](CCCCN)C(=O)N1CCC[C@H]1C(=O)N[C@@H](CCCCN)C(=O)N[C@@H](CCCCN)C(=O)N[C@H](C(=O)N[C@@H](CCCNC(=N)N)C(=O)N[C@@H](Cc1ccc(O)cc1)C(=O)N[C@@H](CO)C(N)=O)[C@@H](C)CC [compound 23] |
| – | 0.14 | CC[C@H](C)[C@H](NC(=O)[C@H](CC(C)C)NC(=O)[C@H](Cc1c[nH]c2ccccc12)NC(=O)[C@H](CCC(=O)O)NC(=O)[C@@H](NC(=O)[C@H](Cc1ccccc1)NC(=O)[C@H](CCC(=O)O)NC(=O)[C@H](CCCCN)NC(=O)[C@H](C)NC(=O)[C@H](C)NC(=O)[C@H](CCCCN)NC(=O)[C@H](CCC(=O)O)NC(=O)[C@H](CCC(=O)O)NC(=O)[C@H](CC(C)C)NC(=O)[C@H](Cc1ccc(O)cc1)NC(=O)[C@H](CCC(=O)O)NC(=O)[C@@H](NC(=O)[C@@H](NC(=O)[C@H](CC(=O)O)NC(=O)[C@H](CC(N)=O)NC(=O)[C@@H](NC(=O)[C@H](Cc1ccc(O)cc1)NC(=O)[C@@H](NC(=O)CNC(=O)[C@H](CCC(=O)O)NC(=O)[C@@H](C)NC(=O)[C@@H](N)Cc1c[nH]cn1)[C@@H](C)O)[C@@H](C)O)C(C)C)[C@@H](C)O)[C@@H](C)CC)C(N)=O [compound 43] |
| – | 34 | CC[C@H](C)[C@H](NC(=O)[C@H](Cc1ccccc1)NC(=O)[C@H](CCC(=O)O)NC(=O)[C@H](CCCCN)NC(=O)[C@H](C)NC(=O)[C@H](C)NC(=O)[C@H](CCCCN)NC(=O)[C@H](CCC(=O)O)NC(=O)[C@H](CCC(=O)O)NC(=O)[C@H](CC(C)C)NC(=O)[C@H](Cc1ccc(O)cc1)NC(=O)[C@H](CCC(=O)O)NC(=O)[C@@H](NC(=O)[C@@H](NC(=O)[C@H](CC(=O)O)NC(=O)[C@H](CC(N)=O)NC(=O)[C@@H](NC(=O)[C@H](Cc1ccc(O)cc1)NC(=O)[C@@H](NC(=O)CNC(=O)[C@H](CCC(=O)O)NC(=O)[C@@H](C)NC(=O)[C@@H](N)Cc1c[nH]cn1)[C@@H](C)O)[C@@H](C)O)C(C)C)[C@@H](C)O)C(=O)N[C@@H](CCC(=O)O)C(=O)N[C@@H](Cc1c[nH]c2ccccc12)C(=O)N[C@@H](CC(C)C)C(N)=O [compound 45] |

Reference: US20100009907A1, “Glucagon-Like Peptides and Uses Thereof” (AMYLIN PHARMACEUTICALS, INC., priority 2006, published 2010)
